The structures appear in SMILES notation. pIC50: −log10 of the molar value.

By UniProt entry, the sequences of proteins in these tests, tags left out.
UniProt P06276, whole entry: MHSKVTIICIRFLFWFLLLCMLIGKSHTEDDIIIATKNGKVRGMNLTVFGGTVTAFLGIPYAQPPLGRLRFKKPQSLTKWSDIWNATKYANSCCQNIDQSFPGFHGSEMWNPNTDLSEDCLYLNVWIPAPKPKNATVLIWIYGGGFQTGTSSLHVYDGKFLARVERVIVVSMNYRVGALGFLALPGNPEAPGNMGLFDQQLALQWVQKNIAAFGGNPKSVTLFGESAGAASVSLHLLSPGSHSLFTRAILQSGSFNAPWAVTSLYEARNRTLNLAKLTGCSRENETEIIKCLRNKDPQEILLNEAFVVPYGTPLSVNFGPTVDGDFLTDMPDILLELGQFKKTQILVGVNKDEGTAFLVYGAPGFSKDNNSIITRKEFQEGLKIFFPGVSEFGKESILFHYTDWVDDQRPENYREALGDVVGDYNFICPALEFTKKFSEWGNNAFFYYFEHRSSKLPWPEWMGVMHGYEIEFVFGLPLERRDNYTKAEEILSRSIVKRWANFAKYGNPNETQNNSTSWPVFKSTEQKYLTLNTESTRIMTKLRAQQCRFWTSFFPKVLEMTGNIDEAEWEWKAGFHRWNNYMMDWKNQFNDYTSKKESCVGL

The assay deals with Cholinesterase (Homo sapiens, UniProt P06276). Briefly: Inhibition of human serum BuChE using butyrylthiocholine iodide as substrate incubated for 10 mins followed by substrate addition by DTNB reagent based Ellman's method. In general terms: Ellman's reagent forms a yellow product with free thiols.

As a reminder, the pIC50 is the IC50 on a negative log10 scale, so that one unit is a factor of ten. High values mean a small IC50, low ones a large IC50. For the molecule `CCN(C)C(=O)Oc1cccc([C@H](C)N(C)C)c1` [RIVASTIGMINE], the pIC50 is 6.76.

For the origin of these results see ChEMBL document CHEMBL6121005 (Eur J Med Chem, 2025).
